From publication PMC9919591, “New Triazine Derivatives as Serotonin 5-HT6 Receptor Ligands” (Molecules, 2023) come the findings set out here.

Chains of the proteins cited; added tags and fusions are not shown.
UniProt P50406, whole entry: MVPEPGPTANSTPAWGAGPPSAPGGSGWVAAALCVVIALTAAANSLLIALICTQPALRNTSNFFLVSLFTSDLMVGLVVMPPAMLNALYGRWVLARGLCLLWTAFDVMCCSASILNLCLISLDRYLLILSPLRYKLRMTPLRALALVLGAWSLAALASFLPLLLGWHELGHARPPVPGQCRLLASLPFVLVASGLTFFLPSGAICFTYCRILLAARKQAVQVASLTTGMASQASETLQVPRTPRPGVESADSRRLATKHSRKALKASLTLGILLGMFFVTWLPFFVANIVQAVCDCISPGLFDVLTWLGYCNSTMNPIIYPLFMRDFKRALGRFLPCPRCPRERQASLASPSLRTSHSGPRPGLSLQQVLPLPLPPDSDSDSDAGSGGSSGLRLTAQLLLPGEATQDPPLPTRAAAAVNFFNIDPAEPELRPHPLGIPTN
UniProt P34969, whole entry: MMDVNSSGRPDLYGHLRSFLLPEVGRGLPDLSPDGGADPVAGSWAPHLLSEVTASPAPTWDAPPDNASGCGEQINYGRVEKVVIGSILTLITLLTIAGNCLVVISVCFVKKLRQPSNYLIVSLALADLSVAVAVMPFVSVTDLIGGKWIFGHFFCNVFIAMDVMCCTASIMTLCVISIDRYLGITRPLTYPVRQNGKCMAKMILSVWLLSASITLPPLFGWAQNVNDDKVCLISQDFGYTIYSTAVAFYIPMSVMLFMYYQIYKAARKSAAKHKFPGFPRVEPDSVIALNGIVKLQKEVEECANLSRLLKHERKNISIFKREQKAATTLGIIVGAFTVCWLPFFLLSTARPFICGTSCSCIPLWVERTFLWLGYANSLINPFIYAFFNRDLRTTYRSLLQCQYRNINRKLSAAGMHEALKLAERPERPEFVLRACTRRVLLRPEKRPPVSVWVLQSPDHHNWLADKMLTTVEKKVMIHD

The target of one assay is human 5-HT6R (Homo sapiens, UniProt P50406). Nature of the assay: Radioligand binding assay, 5-HT6R ([3H]-LSD).
A further assay concerns the target human 5-HT7R (Homo sapiens, UniProt P34969). Nature of the assay: Radioligand binding assay, 5-HT7R ([3H]-5-CT). To be noted: read-out: Ki 5-HT7R, HEK293 cells stably expressing human 5-HT7R. As for the experimental part: Affinity for serotonin 5-HT2A, 5-HT7 and dopamine D2 receptors (D2R) as protein off-targets was evaluated in the radioligand binding assays. In CHO-K1 cells, it was stably expressed human 5-HT2AR, whereas human 5-HT7R and D2R were stably expressed in HEK293 cells. […] A particularly weak affinity towards this receptor was shown through compounds of series 1 (compounds 1–7) and series 2 (compounds 8–13). […]. Radioligand binding assays were used to determine the affinity of the synthesized compounds for human serotonin 5-HT6R, 5-HT2AR, 5-HT7R and dopamine D2R, which were stably expressed in HEK293 cells or CHOk1 cells (5-HT2AR). This was done as described previously.

Each structure is given as a SMILES string.

What is called Ki is a dissociation constant, usually derived from enzyme kinetics or from competition with a known ligand. With `CN1CCN(c2nc(N)nc(COc3ccccc3C(C)(C)C)n2)CC1` [Compound 3, 4-((2-(tert-Butyl)phenoxy)metyl)-6-(4-methylpiperazin-1-yl)-1,3,5-triazin-2-amine], on human 5-HT6R (ratio of Ki values vs 3 (Ki = 13 nM)), the “decrease in affinity for 5-HT6R compared to the free base 3” value worked out at 3 fold. Besides, the inhibitory constant (Ki) was determined as 0.035 µM at human 5-HT6R (read-out: Ki 5-HT6R, [3H]-LSD, HEK293 cells stably expressing human 5-HT6R, average of at least two independent experiments) and 15.5 µM at human 5-HT7R.
